Measurements from patent US11358947B2, “Substituted 2-acylamino-cycloalkylthiophene-3-carboxylic acid arylamides as inhibitors of calcium-activated chloride channel TMEM16A” (THE REGENTS OF THE UNIVERSITY OF CALIFORNIA, priority 2017, dated 2022).

Key:
[1] = test system: non-TMEM16A Ca2+-activated Cl- channel in HT-29 cells; test: Non-TMEM16A CaCC plate reader assay in HT-29 cells expressing YFP; format: cell-based; settings: Homo sapiens, non-TMEM16 anion conductance, fluorescence plate reader assay
Method: (§1) Concentration-dependent inhibition of TMEM16A measured by short-circuit current assay; TMEM16B and non-TMEM16 anion conductance measured using a fluorescence plate reader assay using FRT and HT-29 cells respectively; cell viability measured in FRT null cells.
(§2) We further assayed the compound potency on endogenous non-TMEM16A. Ca^2+-activated Cl^− channel in HT-29 cells.
Plate reader assays of chloride channel function, CFTR inhibition was assayed as described. […] Activity of non-TMEM16A CaCC was assayed as described in HT-29 cells expressing YFP.

TMEM16B = molecular target: T1, TMEM16B (Homo sapiens, UniProt Q9NQ90); test: TMEM16B fluorescence plate reader assay in FRT cells; format: cell-based
T1 construct: expressed in transfected cells; host or cells: Fischer Rat Thyroid (FRT) cells co-expressing YFP
T1 sequence (Q9NQ90 1-998): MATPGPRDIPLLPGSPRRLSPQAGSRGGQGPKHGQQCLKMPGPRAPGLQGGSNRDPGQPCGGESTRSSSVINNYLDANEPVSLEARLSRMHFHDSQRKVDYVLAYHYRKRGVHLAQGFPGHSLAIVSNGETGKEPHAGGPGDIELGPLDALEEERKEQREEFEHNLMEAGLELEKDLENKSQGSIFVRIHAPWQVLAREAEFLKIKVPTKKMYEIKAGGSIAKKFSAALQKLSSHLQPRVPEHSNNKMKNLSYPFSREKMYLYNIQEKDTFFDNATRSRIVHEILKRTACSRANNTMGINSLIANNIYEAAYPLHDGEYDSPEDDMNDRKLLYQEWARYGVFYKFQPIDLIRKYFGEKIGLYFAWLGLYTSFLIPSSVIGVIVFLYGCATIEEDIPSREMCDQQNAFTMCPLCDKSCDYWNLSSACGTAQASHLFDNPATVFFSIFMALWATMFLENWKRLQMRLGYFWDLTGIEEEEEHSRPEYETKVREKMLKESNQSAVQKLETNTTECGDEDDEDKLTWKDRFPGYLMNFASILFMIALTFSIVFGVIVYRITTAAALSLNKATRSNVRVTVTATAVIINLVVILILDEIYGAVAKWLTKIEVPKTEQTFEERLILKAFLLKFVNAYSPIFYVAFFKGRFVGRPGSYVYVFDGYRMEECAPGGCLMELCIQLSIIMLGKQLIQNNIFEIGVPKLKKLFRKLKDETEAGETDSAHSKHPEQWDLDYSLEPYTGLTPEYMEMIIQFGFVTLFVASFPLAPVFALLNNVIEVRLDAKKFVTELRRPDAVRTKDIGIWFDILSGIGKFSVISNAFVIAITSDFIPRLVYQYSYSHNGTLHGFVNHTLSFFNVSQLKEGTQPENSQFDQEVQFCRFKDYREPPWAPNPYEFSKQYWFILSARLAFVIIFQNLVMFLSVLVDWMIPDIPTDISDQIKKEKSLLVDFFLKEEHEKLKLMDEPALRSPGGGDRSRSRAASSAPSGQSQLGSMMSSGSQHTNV
Method: as §1, §2
TMEM16A functional assay. TMEM16A functional plate-reader assay was done as previously described. […] Test compounds (0.5 μl in DMSO) were added to each well at specified concentration. […] The initial rate of I− influx following each of the solution additions was computed from fluorescence data by nonlinear regression. TMEM16B activity was assayed similarly as described using FRT cells co-expressing YFP and TMEM16B.

Structure (SMILES) | IC50 [1] | IC50 (TMEM16B)
Cc1ccccc1NC(=O)c1c(NC(=O)C(F)(F)Cl)sc2c1CCCCC2 [Compound 6bk, 2-(2-Chloro-2,2-difluoro-acetylamino)-5,6,7,8-tetrahydro-4H-cyclohepta[b]thiophene-3-carboxylic acid o-tolylamide] | 9.5 µM | 
Cc1ccccc1NC(=O)c1c(NC(=O)C(F)(F)Br)sc2c1CCCCC2 [Compound 6bm, 2-(2-Bromo-2,2-difluoro-acetylamino)-5,6,7,8-tetrahydro-4H-cyclohepta[b]thiophene-3-carboxylic acid o-tolylamide] | 5.4 µM | ~0.4 µM
Cc1ccccc1NC(=O)c1c(NC(=O)C(F)(F)I)sc2c1CCCCC2 [Compound 6bn, 2-(2,2-Difluoro-2-iodo-acetylamino)-5,6,7,8-tetrahydro-4H-cyclohepta[b]thiophene-3-carboxylic acid o-tolylamide] | 3.5 µM | 
